{
  "source": "PubChem BioAssay AID651995",
  "about": "(Sanford-Burnham Center for Chemical Genomics, 2013)",
  "note": "The entries are a selection whose mix differs from that of the whole data set. Active and inactive are the calls of the source.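 Rule for the calls: active = mean inhibition above about 25% (limit read from the data); inactive = the rest.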",
  "data": [
    {"test": "inhibitors of Wnt3a-driven luciferase in Wnt-LIGHT cells – cell-based, luminescence, single concentration, counter-screen for Gli-SUFU antagonist project, confirmation (AID 651995)", "conditions": "Wnt3a-driven luciferase reporter, at 6.25 µM, stronger effect = higher value", "values": [
      {"smiles": "CN1CCCC(OC(=O)C(c2ccccc2)c2ccccc2)C1", "note": "(stereo not drawn)", "inhibition": "inactive: -43.5%"},
      {"smiles": "N#C/C(=C\\c1ccc(N(CCBr)CCBr)cc1)C(N)=O", "inhibition": "inactive: 24.6%"},
      {"smiles": "CC(=O)NC(SC(=S)N(C)C)C(Cl)(Cl)Cl", "note": "(stereo not drawn)", "inhibition": "inactive: -8.55%"}
    ]}
  ]
}
